Earlier results in patent US20240000899A1, “THERAPEUTIC USEFUL AGAINST ANTIMICROBIAL RESISTANT AGENTS” (priority 2022, published 2024).

Details: deep lung, Dahl 1983; cited from earlier work

Compound: O=S(=O)(O)O [sulfuric acid]
- time in which the acid anion is absorbed: 2 to 3 min
